# From patent publication US20130115133A1, “INACTIVATION OF MICROORGANISMS WITH […] […] PHENOTHIAZINIUMS” (priority 2004, published 2013)
# Where two headings read alike, the source gives them in different places.
# Tests used:
# [1] = tested on: S. aureus NorA-, wild type, and NorA+; test: Photodynamic inactivation (PDI), light-dose dependent phototoxicity; assay type: cell-based, Staphylococcus aureus; conditions: S. aureus NorA strains; 10 μM
# Procedure: A polylysine-chlorine6 conjugate (pL-ce6), and Rose Bengal (RB) (Sigma-Aldrich) were used as non-phenothiazinium-based PS (FIG. 3). Stock solutions were prepared in water at a concentration of 2-mM and stored for a maximum of 2 weeks at 4° C. in the dark before use. Spectra of stock solutions diluted 140-280 fold in methanol were recorded on an UV-visible spectroscopy system (Waldbronn, Germany). A non-coherent light source with interchangeable fiber bundles (LC122, LumaCare, London, UK) was employed. Thirty-nm band pass filters at ranges 540±15 nm for RB, 635±15 nm for TBO, and DMMB, and 660±15 nm for MB and pLce6 were used. The total power output provided out of the fiber bundle ranged from 300-700 mW. The spot was arranged to give an irradiance of 100 mW/cm^2.
# Bacterial suspensions in PBS (initial concentration 10^8 cells mL^−1) were incubated with PS in the dark at room temperature for 30 minutes at concentrations varying from 1-μM to 300-μM. The cell suspensions were centrifuged at 12000 rpm and then washed twice with sterile PBS. […] This allowed a maximum of seven logs of killing to be measured. […]
# The three isogenic strains of S. aureus were incubated with 10 μM MB for 30 minutes and then washed free of unbound dye by centrifugation and resuspension in PBS and illuminated with 100 mWcm^−2 660-nm light, and the survival fractions determined as described above. […]
# [2] = tested on: P. aeruginosa MexAB-, wild type and MexAB+; assay type: cell-based, Pseudomonas aeruginosa; conditions: MexAB knock-out, 300 μM
compound,measurement,setting,value
"CN(C)c1ccc2nc3ccc(=[N+](C)C)cc-3sc2c1 [MB, methylene blue]",overall order of efficiency of killing,[1],DMMB>TBO>MB
same,logs more killing (than wild-type),[2]; at 5 J/cm2,two
same,logs more killing (than wild-type),[2]; at 10 J/cm2,two
same,killing,[2]; at 15 J/cm2,completely eliminated
